Ab-14 heavy chain CDR variants: yeast mating affinities

Binding partner: SARS-CoV-2 spike HR2 peptide, sequence PDVDLGDISGINAS.

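The starting antibody came from a phage panning campaign against this peptide. These sequences belong to a second round, designed from the earlier measurements on random variants of the parent. Group labels follow the data file (Ctrl: baseline library sampled from a position-specific scoring matrix, with some repeated check sequences; Rand: our label for a block that the file lists under HC and that is probably the random mutants of the ten best first-round binders; En: ensemble of fine-tuned language models; GP: Gaussian process model; GPLM: also part of the Gaussian process libraries; HC: hill climbing; Gen: genetic algorithm; Gibbs: Gibbs sampling; a sequence that several methods proposed may carry one label only). The scFvs were displayed on barcoded MATa yeast, the peptide on MATalpha yeast. Binding brings cells together so that they mate, and sequencing counts the barcode pairs among the diploids. Each replicate has its own calibration line, from reference interactions of the BCL2 family. The assay was run in six technical replicates.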

Each scFv is VH, three GGGGS repeats, VL, as in the parent Ab-14, and differs from it in the CDRs of the heavy chain only.
VH: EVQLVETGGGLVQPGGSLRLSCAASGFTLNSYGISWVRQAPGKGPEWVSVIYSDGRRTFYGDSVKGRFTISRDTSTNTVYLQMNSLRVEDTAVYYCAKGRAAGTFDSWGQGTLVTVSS
VL: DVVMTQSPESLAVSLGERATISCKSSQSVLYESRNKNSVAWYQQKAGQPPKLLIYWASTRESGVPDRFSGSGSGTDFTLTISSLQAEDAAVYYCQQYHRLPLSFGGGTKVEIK

Variants are written as CDR1, CDR2 and CDR3 of the heavy chain (limits as in the source). Parent: GFTLNSYGIS, VIYSDGRRTFYGDSVK, GRAAGTFDS.
Affinities are written as log10 Kd with Kd in nM; a lower number is a better binder.
Replicates are averaged; those with no signal do not enter the mean.
"not detected" marks a missing value. The strain was present, yet no cells mated with the target were sequenced in any replicate, which points to weak or no binding.
The parent sequence was in this pool as ten entries: three were never detected, three once, and four in most replicates, with averages from 0.34 to 2.37.

CDR-H1	CDR-H2	CDR-H3	group	log10 Kd (nM), mean	seen in
GFTLDSYGIS	VIYSDGERTFYGDSVK	GRAAGTFDS	Ctrl	1.70	5/6
GFNLNSYGIS	VIYSDGRRTFYDDSVK	GMLAGTFDS	GP_HC	1.29	6/6
GFWLNSYGIS	VIYSDGRRTFYGDSVK	GRIAGSFDS	Ctrl	not detected	0/6
GFDLNSYGIS	VIYSDGRRTFYVDSVK	GQAVGTFDT	GP_Gibbs	1.29	3/6
RFELNSYGIS	VIYSDGRRTFYIDSVK	GRIAGTFDS	GP_HC	1.48	1/6
GFELNSYGIS	VIYSDGRRTFYVDSVK	GKQAGTFDS	GP_Gibbs	1.15	5/6
GFDLNEYGIS	VIYADGMRTAYADSVK	GQLAGTFDT	En_HC	-0.68	6/6
GFTLNSYGIS	VIYADGRRTKYGSSVK	GRAAGTNKS	Rand	not detected	0/6
GFDLNEYGIS	VIYADGKRTAYTDSVK	GNEAGTFDV	En_Gen	-0.68	6/6
GFTINSYGIS	VIYSDGRRTFYGDSVK	GRLAGTFDS	Ctrl	2.20	5/6
GFDLDEYGIS	VIYADGRRTFYADSVK	GEVAGTFDT	En_HC	-0.41	6/6
PFELNSYGIS	VIYADGRRTFYGDSVK	GKAAGTFDS	GP_Gen	1.47	4/6
GGDLNEYGIS	VIYADGVRKNYIDSVK	GQTGIDLNI	En_Gibbs	2.86	1/6
GFDLNEYGIS	VIYADGYRTAYADSVK	GENAGTFDV	En_Gen	-0.63	6/6
GFSLDEYGIS	VIYADGVRARYSDQVK	GVKVGNVIM	En_Gibbs	2.98	1/6
GFSLESYGIS	VIYSDGRRTFYGDSVK	GRAYGTFDS	Ctrl	not detected	0/6
GFKLNSYGIS	VIYSDGRRTFYDDSVK	GLLAGTFDS	GP_HC	0.35	3/6
GFDLNEYGIS	VIYADGVRTAYADSVK	GKVAGTFNV	En_HC	-0.55	6/6
GFDLDEMGIS	VIYADGRRTAYSNAFK	GNLQYGFMV	En_Gibbs	not detected	0/6
GFQLNSYGIS	VIYSDGRRTFYGDSVK	GKTAGTFDT	GP_Gibbs	0.59	6/6
GFDLNEYGIS	VIYADGVRTAYADSVK	GGVAGTFDV	En_Gen	-0.59	6/6
GFDLQEYGIS	VIYADGKRRAYENKVK	GQSGSSVVI	En_Gibbs	not detected	0/6
GFDLNEYGIS	VIYADGVRTSYADSVK	GGNAGTFDV	En_Gen	0.90	3/6
GFDLNEYGIS	VIYADGMRTAYADSVK	GANAGTFDV	En_Gen	-0.44	6/6
GQSLDDYGIS	VIYADGMRKAYVDEVK	GYVAGTFDI	En_Gibbs	0.25	6/6
GFDLNEYGIS	VIYADGMRTAYADDVK	GNHAGTFDV	En_Gen	-0.82	6/6
GFDLNEYGIS	VIYADGRRTFYSDDVK	GEVAGTFDL	En_HC	-0.42	6/6
GFTLNDYGIS	VIYSDGRRTWYGDSVK	GRYAGTFDS	GP_HC	1.03	6/6
GFSLNEYGIS	VIYSDGRRTFYHDSVK	GRTAGTFDS	GPLM_Gen	0.01	6/6
GFELNSYGIS	VIYSDGRRTFYIDSVK	GKTAGTFDA	GP_Gibbs	0.74	6/6
NFTLNEYGIS	VIYSIGRRTFYTDSVK	GRFAGTFDS	Rand	not detected	0/6
GYSLEEYGIS	VIYADGRRTAYADNVK	GMSGNDGMF	En_Gibbs	not detected	0/6
GFHLNSYGIS	VIYSDGRRTFYADNVK	GQTAGTFDS	GP_Gibbs	0.81	6/6
GFNLNSYGIS	VIYSDGRRTFYADSVK	GREAGTFDT	GPLM_Gen	-0.02	6/6
GFDLNEYGIS	VIYADGMRTAYADKVK	GNTAGTFDL	En_Gen	-0.19	6/6
GFDLDEYGIS	VIYADGMRTFYADSVK	GENAGTFDT	En_Gen	0.22	6/6
GFDLNSYGIS	VIYSDGRRTFYGDSLK	GRAAGWFNS	Rand	not detected	0/6
GFSLNSYGIS	VIYSDGRRTFYSDSVK	GHAGGTFDS	GP_HC	0.74	6/6
GFDLDEYGIS	VIYADGQRTAYADSVK	GNVAGTFDI	En_Gen	-0.35	6/6
GFSLNWYGIS	VIYSDGRRTWYIDSVK	GRAAGTFDS	GP_HC	not detected	0/6
GFTLEKYGIS	VIYADGRRTFYGDSVK	GRAAGTFDS	GP_HC	0.43	6/6
GFELNSYGIS	VIYSDGRRTFYGDEVK	GKTAGTFDS	GP_Gibbs	1.90	4/6
GFDLNEYGIS	VIYADGMRTAYANSVK	GEVAGTFDL	En_Gen	-0.48	6/6
GFTLNSYGIS	VIYSDGRRTFYGDSVR	GRAMGTFDS	Ctrl	not detected	0/6
GFTLNSYGIS	VIYNDGRRTFYGDSVK	GDNADTFDS	Ctrl	not detected	0/6
GFDLNEYGIS	VIYADGKRTFYSDSVK	GNQGGTFDV	En_HC	0.54	6/6
GFDIQEYGIS	VIYADGLRSMVTNSVK	GESGVMVLV	En_Gibbs	not detected	0/6
GFDLNEYGIS	VIYADGSRTAYSDSVK	GNVAGTFDL	En_Gen	-0.46	6/6
GFDLNEYGIS	VIYADGRRTFYSDSVK	GNTAGTFDV	En_HC	0.65	5/6
GFDIDEYGVS	VIYADGFRKAYAESVK	GLQQFGFTV	En_Gibbs	not detected	0/6
GFELNSYGIS	VIYSDGRRTFYADSVK	GRIAGTFDS	GP_Gen	1.26	6/6
GFDLNEYGIS	VIYADGMRTSYADDVK	GQNAGTFDV	En_Gen	0.17	6/6
GFDLNSYGIS	VIYSDGRRTFYIDSVK	GRLAGTFDS	GPLM_Gibbs	1.54	5/6

5 of these entries, quoted again:

CDR-H1	CDR-H2	CDR-H3	group	log10 Kd (nM), mean	seen in
GFTLEKYGIS	VIYADGRRTFYGDSVK	GRAAGTFDS	GP_HC	0.43	6/6
GGDLNEYGIS	VIYADGVRKNYIDSVK	GQTGIDLNI	En_Gibbs	2.86	1/6
GFELNSYGIS	VIYSDGRRTFYADSVK	GRIAGTFDS	GP_Gen	1.26	6/6
GFDLNSYGIS	VIYSDGRRTFYVDSVK	GQAVGTFDT	GP_Gibbs	1.29	3/6
GFDLNSYGIS	VIYSDGRRTFYGDSLK	GRAAGWFNS	Rand	not detected	0/6

As a blank, each scFv also met three strains without target: over all heavy chain designs, 1% of these pairings were detected, typically at 2.08 and seldom below 0.84.
Values of this round are not directly comparable with the first-round values of the same sequences.
In the paper, a design with two or fewer of six values counts as a poor binder.

Source: Li et al. 2023 (doi:10.1038/s41467-023-39022-2), MIT Lincoln Laboratory and A-Alpha Bio; data file from the FLAb repository.